Literature values in US20200353057A1, “REDUCING IMMUNOGENICITY TO PEGLOTICASE” (Horizon Pharma Rheumatology LLC, priority 2019, published 2020).

Test system: participants taking colchicine for gout flare prophylaxis
Details: prophylaxis of gout

For `COc1cc2c(c(OC)c1OC)-c1ccc(OC)c(=O)cc1[C@@H](NC(C)=O)CC2` [colchicine], the Diarrhea is given as 23% and the Pharyngolaryngeal pain is given as 3%.
